System: rat gastric mucosa
Settings: male, Wistar, in vivo, po, 4 days
Protocol: The animals entered in the trial, randomized and divided into groups of 6 rats each, were fasted for 16 h prior to treatment, with access to water ad libitum. They were re-fed 1 h after drug administration. The compound 2-methoxyphenyl-1-methyl-5p-methylbenzoyl-pyrrol-2-acetamido acetate and the other reference NSAIDs, suspended in 1% carboxymethylcellulose (CMC) solution, were orally administered by gastric gavage in a volume of 6ml/kg for four consecutive days. Controls received the vehicle in the same way as the treated animals. 4 h after the last administration the animals were killed by ether overdose; the stomachs were removed, rinsed with 10 ml of saline and immersed in 1% formalin. They were later opened along the greater curvature and the mucosa examined for lesions.
The seriousness of the lesion was quantified according to a scale graduated from 1 to 3 according to the size of the lesions: 1= ulcer < 1mm; 2= ulcer 1-2mm; 3= ulcer > 2mm. […] The gastric lesions were evaluated by two independent investigators under blind conditions according to Main & Whittle method (BJ Pharmac 1975:53; p. 217-224).
Since the average daily dose in man (for the anti-inflammatory activity) is 600 mg, the comparative efficacious dose in the rat is in the ratio of 12:1. […] To evaluate the "ratio to rat dosage" the ID50 has been determined using the carrageenin-induced oedema as inflammatory test. […]

Structure (SMILES): CS(=O)(=O)Nc1ccc([N+](=O)[O-])cc1Oc1ccccc1 [Nimesulide, nimesulide]
- Gastrolesive index: 46.2

Reference: patent EP1310250A1, “Use of the compound 2-methoxyphenyl-1-methyl-5P-methylbenzoyl-pyrrol-2-acetamido acetate for the production of an antiinflammatory drug with prevention of gastric hypersecretion and renal impairment” (MEDOSAN Ricerca S.r.l., priority 1997, dated 1999)
